The data set has as its system A498 ccRCC xenografts. Kind of data set: A498 ccRCC subcutaneous xenograft study. The following applies: after the first week of treatment.

Structures are written as SMILES.

This note sets out measurements from US10160972B2, “Methods and materials for treating cancer” (Mayo Foundation for Medical Education and Research, priority 2012, dated 2018).

With `CNC(=O)c1cccc(NC(=O)N2CCC(Oc3ccccc3Cl)CC2)c1` [A939572], the eye observations entry is “increased blinking, and slight mucosal discharge from the eyes”.
